From PubChem BioAssay AID807 (SRMLSC, 2007)
This is a selection; strong and weak results do not stand in their true shares. Calls of active or inactive are those of the source.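 Rule for the calls: active = viability increase at or above a cutoff of the median across tested compounds plus 3 SD (cut at about 8.5% in these data, passing the limit was not always enough); inconclusive = some gains above the cutoff, reason not given; inactive = the rest.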

Assay: doxorubicin toxicity protection in MRP-1 cells – H69AR cells, CellTiter-Glo, duplicate, MRP-1 activator project, pilot screen (AID 807);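 note: compound pretreatment 18-22 h then 72 h combined with doxorubicin; 0% = doxorubicin alone and 100% = vehicle without doxorubicin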
Conditions: H69AR viability with doxorubicin, CellTiter-Glo luminescence; at 10 µM; active compounds read high

SMILES | viability increase
COC(=O)c1cc2c(s1)N=C(c1ccccc1)N(C)P2(=O)N1CCOCC1 (stereo unspecified) | inactive: -0.93%
